Binding of CDR-mutated scFvs to a peptide of the spike HR2 region

Target: peptide PDVDLGDISGINAS, taken from heptad repeat 2 (HR2) of SARS-CoV-2 spike.

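The parent was found by panning a naive human phage display library on the peptide. This is the validation round: designs drawn from the data on random variants, tested in the same kind of assay. Group labels follow the data file (En: ensemble of fine-tuned language models; GP: Gaussian process model; HC: hill climbing; Gen: genetic algorithm; Gibbs: Gibbs sampling; a sequence that several methods proposed may carry one label only). Affinity was read by AlphaSeq, a pooled yeast mating assay with surface-displayed partners. After mating in shaken culture at 30 °C for 16 h, diploids were selected and their barcode pairs sequenced. A regression on co-assayed BCL2-family reference pairs converts the normalised counts of each replicate to an apparent Kd. The assay was run in six technical replicates.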

Parent: Ab-14, a human scFv built as VH, a 15-residue (Gly4Ser)3 linker, VL. Only the CDRs of the light chain vary.
VH: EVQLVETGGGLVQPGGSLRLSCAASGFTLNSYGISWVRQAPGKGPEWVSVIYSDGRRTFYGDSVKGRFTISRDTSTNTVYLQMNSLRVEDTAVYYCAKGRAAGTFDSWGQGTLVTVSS
VL: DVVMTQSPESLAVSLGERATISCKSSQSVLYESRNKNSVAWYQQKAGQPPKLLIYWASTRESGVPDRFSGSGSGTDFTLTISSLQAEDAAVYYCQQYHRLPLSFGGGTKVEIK

Variants are written as CDR1, CDR2 and CDR3 of the light chain (limits as in the source). Parent: KSSQSVLYESRNKNSVA, WASTRES, QQYHRLPLS.
This list holds designs with more than six substitutions.
The Kd shown is the geometric mean over detected replicates; a lower Kd is a better binder.
Where no diploid with the target was found in any replicate, the entry reads "nd": below detection, most likely a poor binder, though not proof of it.
Of ten entries with the parent sequence, four were seen in most replicates (averages 2.2 nM to 240 nM), three in one and three in none, so single entries are noisy.

* KWMQSVDYESRNKNSVA, NGQTREE, QQYHRLPLS [GP_Gibbs]: 1.4 nM (6 of 6 replicates; controls 0 of 18)
* HIQDARGGLSEQWNSVA, STEERSH, QQYHRLPLS [En_Gibbs]: 4.1 nM (6 of 6 replicates; controls 2 of 18)
* KIEISNSWSLRGTKAVA, QASTRAH, QQYQRLPLL [En_Gibbs]: 16 nM (6 of 6 replicates; controls 2 of 18)
* MLSQMWGIGMKAKNSVA, QANMRFN, QQYDRLPLI [En_Gen]: 18 nM (6 of 6 replicates; controls 1 of 18)
* NMKMSQLQGILIKDSIA, SSNLREM, QQYEHLPLI [En_Gibbs]: 67 nM (6 of 6 replicates; controls 1 of 18)
* MMSSIMGYESRHINNVA, QTSTREA, QQYDRLPLI [En_Gen]: 1.8 nM (6 of 6 replicates; controls 1 of 18)
* KLREVQHVESKQKNNVA, DNSTREY, QDYYRLPLS [En_HC]: 44 nM (6 of 6 replicates; controls 2 of 18)
* KLEQSEWYESRMCNSVA, NASVRES, QQYHRLPLS [GP_Gibbs]: 2.3 nM (6 of 6 replicates; controls 1 of 18)
* KFEPSWLYESRNVNSVA, QASQRSD, QQYHRLPLS [GP_Gibbs]: 900 pM (6 of 6 replicates; controls 0 of 18)
* NVGQSMDGVSRNKNSVA, HQSTRED, QHYHRLPLS [En_HC]: 2.0 nM (6 of 6 replicates; controls 1 of 18)
* IVSQLMLWGMHAKNSIA, EASTRLN, QQYDRLPLF [En_Gen]: 82 nM (2 of 6 replicates; controls 2 of 18)
* TISMHTSLFSQTINNVA, EVSEREQ, QQYDRLPLV [En_Gen]: 26 nM (6 of 6 replicates; controls 1 of 18)
* KVSNSVMLESRAWNAVA, EASTRES, QDYHRLPLS [GP_Gibbs]: 3.8 nM (6 of 6 replicates; controls 1 of 18)
* KLEGSELYESRNANSVA, NASTRMS, QQYKRLPLS [GP_Gibbs]: 950 pM (6 of 6 replicates; controls 2 of 18)
* HSNGNLVMGERNKNHVA, STDVRAS, QQYSRLPFT [En_Gibbs]: 1.1 nM (6 of 6 replicates; controls 2 of 18)
* VMFMGLYWNNDEHYAIA, DVTMREK, QQYHRLPLQ [En_Gibbs]: 8.0 nM (6 of 6 replicates; controls 3 of 18)
* KLMALGDYESRNKNNVA, QASQREQ, QQYHRLPLS [GP_Gibbs]: 300 pM (6 of 6 replicates; controls 1 of 18)
* KWSQSVPMGDRNKNSVA, DAHKRES, QQYHRLPLS [GP_Gibbs]: 1.8 nM (6 of 6 replicates; controls 1 of 18)
* KISESMNFAQFNKQSIA, EVSNRSS, QSYNRLPLS [En_Gen]: 120 nM (5 of 6 replicates; controls 1 of 18)
* HLSFPWQSGHDSTHAVA, NDSTLMT, QSYNRLPLS [En_Gibbs]: 64 nM (6 of 6 replicates; controls 3 of 18)
* KMQTLMYTANIGENSVA, DANVHVD, QQYFRLPLS [En_Gibbs]: 6.4 nM (6 of 6 replicates; controls 1 of 18)
* QMTGQLFEQGNRSEPIA, HESMKET, QQYFQLPLT [En_Gibbs]: 240 nM (5 of 6 replicates; controls 1 of 18)
* MMSQVTGLGTRHRNNVA, QTSTREP, QQYDRLPLI [En_Gen]: 5.5 nM (6 of 6 replicates; controls 3 of 18)
* KLRQVTGYEMLNKNSVA, QTSTRVN, QDYHRLPLS [En_HC]: 7.0 nM (6 of 6 replicates; controls 1 of 18)
* MISQLYNMGQFAINSVA, QASERSE, QQYDRLPLQ [En_Gen]: 28 nM (6 of 6 replicates; controls 0 of 18)
* HIDWLNRGETLKKDDIA, NANHREQ, QQYFHLPLV [En_Gibbs]: 2.6 nM (6 of 6 replicates; controls 0 of 18)
* TIGGTLMYGVMNRSNVA, EVSERLN, QQYDRLPLI [En_Gen]: 4.1 nM (6 of 6 replicates; controls 1 of 18)
* IITQSVMQESRNKSNVA, NTTEREP, QQYDRLPLI [En_HC]: 270 nM (5 of 6 replicates; controls 0 of 18)
* KLSSVTGHMSMAKNNVA, EMETREK, QQYNRLPLA [En_Gen]: 1.0 nM (6 of 6 replicates; controls 2 of 18)
* KISQMTRVGSTHHNSIA, EEATRAK, QQYHRLPLA [En_Gen]: 120 nM (6 of 6 replicates; controls 0 of 18)
* HISMSVGMTSFNKNSVA, ENSTREN, QQYDRLPLS [En_HC]: 12 nM (6 of 6 replicates; controls 1 of 18)
* FFSLIQDSYGEANNSIA, ERNTKAH, QQYSRLPLV [En_Gibbs]: 52 nM (4 of 6 replicates; controls 0 of 18)
* IVSQLMLWGLHAKNSIA, EAVMRLN, QQYDRLPLI [En_Gen]: nd (0 of 6 replicates; controls 0 of 18)
* MISDLTYYGSRNKNSVA, DLSTRGS, QQYHRLPLS [En_HC]: 540 pM (6 of 6 replicates; controls 0 of 18)
* KLSQGWLYESREKNSVA, NASQREH, QQYHRLPLS [GP_Gibbs]: 740 pM (6 of 6 replicates; controls 2 of 18)
* KVSVSNPYETRNKNSVA, EASTREE, QQYHRLPLS [GP_Gibbs]: 1.4 nM (6 of 6 replicates; controls 0 of 18)
* MFSQMWALGSKVSNSVA, QASTRFN, QQYHRLPLM [En_Gen]: 1.9 nM (6 of 6 replicates; controls 1 of 18)
* KVDFSWWYESRNKNSVA, NASTREH, QQYHRLPLS [GP_Gibbs]: 2.0 nM (6 of 6 replicates; controls 0 of 18)
* MLSQMWAIGSKVKNSVA, QASMRFN, QQYDRLPLI [En_Gen]: nd (0 of 6 replicates; controls 0 of 18)
* KIGYNTGTESFRQDNIA, DNREREE, QQYYRLPLS [En_Gen]: 1.3 nM (6 of 6 replicates; controls 0 of 18)
* KVQQWQLYESRNKNAVA, NASTRCD, QQYHRLPLS [GP_Gibbs]: 700 pM (6 of 6 replicates; controls 0 of 18)
* TISQMLLMQTSHKNSVA, GEETRYE, QQYHRLPLS [En_HC]: 1.9 nM (6 of 6 replicates; controls 0 of 18)
* KLGAATRFESGNKASIA, NNSTREE, QQYHRLPLS [En_HC]: 5.7 nM (6 of 6 replicates; controls 1 of 18)
* NFAQMVLTGSTLRNSVA, HASTREE, QQYHRLPLI [En_HC]: 4.3 nM (6 of 6 replicates; controls 0 of 18)
* TISQSFLMENQFKNSVA, QASTRER, QCYDRLPLS [En_HC]: 6.2 nM (6 of 6 replicates; controls 2 of 18)
* KLPVLKLYGSRNKNSVA, EASTRES, QQYHRLPLS [GP_Gibbs]: 420 pM (6 of 6 replicates; controls 2 of 18)
* FMEMDFDGNSVNHNSIA, SSEVVTR, QHYARLPLS [En_Gibbs]: nd (0 of 6 replicates; controls 0 of 18)
* HISQTVGMTSRNKNSVA, ENSTRED, QQYDRLPLS [En_HC]: 970 nM (1 of 6 replicates; controls 1 of 18)
* MISQLMNMGTFAINSVA, QASIRNQ, QQYDRLPLT [En_Gen]: 32 nM (4 of 6 replicates; controls 0 of 18)
* KVSLSVLLWSRTANAVA, EASTRES, QQYHRLPLS [GP_Gibbs]: 13 nM (6 of 6 replicates; controls 0 of 18)

The first 8 entries again:

CDR-L1	CDR-L2	CDR-L3	group	Kd (apparent)	detected	empty controls
KWMQSVDYESRNKNSVA	NGQTREE	QQYHRLPLS	GP_Gibbs	1.4 nM	6/6	0/18
HIQDARGGLSEQWNSVA	STEERSH	QQYHRLPLS	En_Gibbs	4.1 nM	6/6	2/18
KIEISNSWSLRGTKAVA	QASTRAH	QQYQRLPLL	En_Gibbs	16 nM	6/6	2/18
MLSQMWGIGMKAKNSVA	QANMRFN	QQYDRLPLI	En_Gen	18 nM	6/6	1/18
NMKMSQLQGILIKDSIA	SSNLREM	QQYEHLPLI	En_Gibbs	67 nM	6/6	1/18
MMSSIMGYESRHINNVA	QTSTREA	QQYDRLPLI	En_Gen	1.8 nM	6/6	1/18
KLREVQHVESKQKNNVA	DNSTREY	QDYYRLPLS	En_HC	44 nM	6/6	2/18
KLEQSEWYESRMCNSVA	NASVRES	QQYHRLPLS	GP_Gibbs	2.3 nM	6/6	1/18

A sequence measured in both rounds can read differently, since the two assays cover different ranges.
The authors averaged sequences with at least three values out of six and counted those with two or fewer as poor binders.
Empty control strains, which show no peptide, gave a signal in 4% of pairings with all light chain designs; the median was 430 nM and 95% of these signals were weaker than 38 nM. No background was subtracted. Also given: how often the same scFv was detected with the empty control strains.

Values reported by Li et al. 2023, doi:10.1038/s41467-023-39022-2 (FLAb copy).